E-selectin induc: E-selectin induction in HUVECs, primary screen, imaging, HUVEC, immunofluorescence imaging, single point | actives 0.37% (n = 260,000) | normalized: neutral wells 0, TNF-alpha wells 100 | activation, % at 7.58 µM | P16581;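 active = mean E-selectin-positive cell signal at least 10% of the positive control, reached in at least 60% of replicates, without over 20% cell loss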
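Read-out basis: % PE-positive cells; Test system: HUVEC primary endothelial cells; Technique: immunofluorescence imaging; Dosing: single-point compound dose.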
Yeast UUG start: modulators of start codon recognition fidelity in yeast. S. cerevisiae UUG-firefly luciferase reporter, luminescence/redox ratio. activity score, % at 18.7 µM. 0.13% of 350,000 active. AID 602363;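 active = replicate mean at a twofold rise or more, about +100% in these data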;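 also: firefly luciferase made from a UUG start codon reports start codon fidelity; reporter light over untreated wells divided by growth signal over untreated wells; some hits fall short of that in this replicate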
Cneo AK release: Cryptococcus neoformans cell lysis inducers, primary screen, AK release luminescence, single concentration | C. neoformans lysis, adenylate kinase release luminescence, 4 h; normalised: neutral wells 0, clomiphene wells 100 | lysis activity, % at 15 µM | actives 0.2% (n = 360,000) | AID 651654, 2012;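 active = mean lysis activity across replicates of at least 80%, whatever share of replicates individually reach that level; inactive = mean lysis activity below 80%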
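Assay system: Cryptococcus neoformans yeast cells / Dosing: single-point compound dose / Timing: 4 h at 37 °C static, read 1 h later / Measured by: luminescence of released adenylate kinase using an AK detection reagent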
DENV2 CPE rescue: inhibitors of DENV2 cytopathic effect, primary screen, cell-based, plate reader, single concentration. DENV2-infected cells, cytopathic effect rescue. CPE inhibition, % at 9.99 µM. actives 1.7% (n = 350,000). AID 651640, 2012; in the data active = CPE inhibition above about 20%, passing the limit was not always enough; tested in BHK-21 cells
Of the large screens only hits and unclear results are named; the others gave an inactive call. This is a sample that favours compounds with a hit; in the whole collection about 1.8% have one here.

COCC(=O)N1CC2(CCN(C(=O)CN3CCOCC3)CC2)c2c([nH]c3cc(OC)ccc23)[C@H]1CO	none (no result: Yeast UUG start, Cneo AK release)
O=C(CSCc1ccccc1)Nc1ccccc1C(=O)Nc1ccc(C(=O)O)cc1	DENV2 CPE rescue 32
O=C(Cc1ccccc1)Nc1ccccc1C(=O)Nc1ccc(C(=O)O)cc1	none (no result: E-selectin induc)
COCC#Cc1cnc2c(c1)C(=O)N([C@@H](C)CO)C[C@H](C)[C@H](CN(C)S(=O)(=O)c1ccccc1)O2	none
C[C@H]1CN([C@@H](C)CO)C(=O)c2cccc(NS(C)(=O)=O)c2O[C@@H]1CN(C)Cc1ccc(Oc2ccccc2)cc1	E-selectin induc 32
C[C@@H]1CN([C@H](C)CO)C(=O)c2cccc(NC(=O)C3CCOCC3)c2O[C@H]1CN(C)Cc1ccc(Oc2ccccc2)cc1	DENV2 CPE rescue 25
C[C@@H]1CN([C@H](C)CO)C(=O)c2cccc(NS(C)(=O)=O)c2O[C@@H]1CN(C)Cc1ccncc1	E-selectin induc 262
C[C@H]1CN([C@@H](C)CO)C(=O)c2cccc(NS(C)(=O)=O)c2O[C@@H]1CN(C)Cc1ccncc1	E-selectin induc 204
CNC(=O)C[C@@H]1CC[C@@H]2[C@@H](COc3ccc(NC(=O)NC(C)C)cc3C(=O)N2C)O1	none
COc1ccccc1NC(=O)N1CC[C@H]2[C@@H]1c1cc(C#Cc3ccc(F)cc3)ccc1N(C)[C@H]2CO	DENV2 CPE rescue 34
CN1c2ccc(-c3ccc(C#N)cc3)cc2[C@@H]2[C@@H](CCN2C(=O)Nc2ccccc2F)[C@@H]1CO	DENV2 CPE rescue 42
CC1(NC(=O)c2cc(Cl)nc3ccccc23)CCS(=O)(=O)C1 (centres undefined)	DENV2 CPE rescue 54 (no result: E-selectin induc)
O=C(NC1CCCC1)C(c1ccc(F)cc1)N(C(=O)c1csnn1)c1ccccc1 (centres undefined)	E-selectin induc 36
COc1cc(OC)cc(C(=O)NNc2nc3cc4c(cc3s2)OCO4)c1	none
COc1cc(C(=O)NNc2nc3cc4c(cc3s2)OCO4)cc(OC)c1OC	E-selectin induc 108
O=C(C[C@@H]1CC[C@H]2[C@@H](COC[C@H](O)CN2Cc2ccc3c(c2)OCO3)O1)Nc1ccc(-c2ccccc2)cc1	none
Cn1cc(CN2CCCC(CNS(=O)(=O)c3cccc4cccnc34)C2)cn1 (centres undefined)	none
CC(C)n1cc(CN2CCCC(CNS(=O)(=O)c3cccc4cccnc34)C2)cn1 (centres undefined)	DENV2 CPE rescue 22
COc1ccccc1/C=C/C=O	DENV2 CPE rescue 25 (no result: E-selectin induc)
COc1ccccc1C#Cc1cnc2c(c1)C(=O)N([C@@H](C)CO)C[C@@H](C)[C@@H](CN(C)C(=O)c1ccc3c(c1)OCO3)O2	none (no result: Yeast UUG start)
CCOC(=O)C1=C(CS(=O)(=O)c2ccc(C)cc2)NC(=O)NC1c1cc(OC)c(O)c(OC)c1 (centres undefined)	DENV2 CPE rescue 37
CCOC(=O)C1=C(CS(=O)(=O)c2ccccc2)NC(=O)NC1c1ccc(OC)c(OC)c1 (centres undefined)	none
C[C@H](CO)N1C[C@H](C)[C@@H](CN(C)C(=O)CN2CCOCC2)Oc2ncc(C3=CCCC3)cc2C1=O	none
CC(C)CC1NC(=O)c2ccccc2-n2c1nc1ccccc1c2=O (centres undefined)	DENV2 CPE rescue 40 (no result: Yeast UUG start, Cneo AK release)
COc1ccc2nc3n(c(=O)c2c1)-c1ccccc1C(=O)NC3Cc1ccccc1 (centres undefined)	DENV2 CPE rescue 89 (no result: Yeast UUG start, Cneo AK release)
CC(C)CC1NC(=O)c2ccccc2-n2c1nc1cc(F)ccc1c2=O (centres undefined)	none (no result: Yeast UUG start, Cneo AK release)
CCC(=O)N(C)C[C@H]1Oc2cc(-c3ccc(F)cc3)ccc2S(=O)(=O)N([C@H](C)CO)C[C@H]1C	none
COc1ccc2c3c(n(C)c2c1)[C@H](CO)N(C(=O)Nc1c(C)noc1C)CC31CCN(CC2CC2)CC1	none (no result: Yeast UUG start, Cneo AK release)
O=C1CN(C(=O)COC(=O)c2cccs2)c2ccccc2N1	E-selectin induc 80
C[C@H](CO)N1C[C@H](C)[C@@H](CN(C)Cc2ccc(C(=O)O)cc2)Oc2ccc(NC(=O)c3ccncc3)cc2C1=O	none (no result: E-selectin induc)
COc1ccc(C(=O)COC(=O)CCCN=C2NS(=O)(=O)c3ccccc32)c(OC)c1	DENV2 CPE rescue 36 (no result: Yeast UUG start, Cneo AK release)
COc1ccccc1C(=O)COC(=O)CCN=C1NS(=O)(=O)c2ccccc21	none (no result: E-selectin induc)
COc1ccc(C(=O)COC(=O)CCN=C2NS(=O)(=O)c3ccccc32)c(OC)c1	DENV2 CPE rescue 82 (no result: E-selectin induc, Yeast UUG start, Cneo AK release)
O=C(CCCN=C1NS(=O)(=O)c2ccccc21)OCC(=O)c1ccccc1	none (no result: E-selectin induc)
COc1ccc(CN2CCC[C@]3(N[C@H](c4ccc(C)cc4)[C@@H]4C(=O)N(Cc5ccccc5)C(=O)[C@@H]43)C2=O)cc1	DENV2 CPE rescue 25 (no result: E-selectin induc)
Cc1ccc([C@H]2N[C@]3(CCCN(Cc4cccn4C)C3=O)[C@H]3C(=O)N(Cc4ccccc4)C(=O)[C@@H]23)cc1	none
CN1C(=O)[C@H]2[C@@H](c3ccccc3)N[C@]3(CCCN(Cc4ccco4)C3=O)[C@H]2C1=O	none
Cc1ccc([C@H]2N[C@]3(CCCN(Cc4ccco4)C3=O)[C@H]3C(=O)N(C)C(=O)[C@@H]23)cc1	DENV2 CPE rescue 60 (no result: E-selectin induc)
COc1ccc(CN2CCC[C@]3(N[C@H](c4ccc(OC)cc4)[C@@H]4C(=O)N(Cc5ccccc5)C(=O)[C@@H]43)C2=O)cc1	none
Cn1cccc1CN1CCC[C@]2(N[C@H](c3ccccc3)[C@@H]3C(=O)N(Cc4ccccc4)C(=O)[C@@H]32)C1=O	DENV2 CPE rescue 41
COc1ccccc1-c1ccc2c(c1)O[C@@H](CN(C)S(=O)(=O)c1ccc(F)cc1)[C@@H](C)CN([C@H](C)CO)S2(=O)=O	none (no result: Yeast UUG start)
Cc1cc(C(=O)CN2C(=O)C(=O)N(Cc3ccco3)C2=O)c(C)n1CCc1ccc(F)cc1	E-selectin induc 90
Cc1cc(C(=O)CN2C(=O)C(=O)N(Cc3ccco3)C2=O)c(C)n1CCc1ccccc1	none (no result: E-selectin induc)
O=C(c1ccccn1)N1C[C@@H]2[C@H](c3ccccc31)[C@H](CO)N2C(=O)C1CC1	none
O=C(Nc1ccc(SC(F)F)cc1)C1CC(=O)N(Cc2ccccc2)C1 (centres undefined)	DENV2 CPE rescue 22
C[C@@H]1CN([C@@H](C)CO)C(=O)c2cc(-c3cccc(F)c3)cnc2O[C@@H]1CN(C)C	none
C[C@@H]1CN([C@H](C)CO)C(=O)c2cc(C3=CCCCC3)cnc2O[C@@H]1CN(C)C(=O)Nc1ccc(F)cc1	DENV2 CPE rescue 34
C[C@H](CO)N1C[C@H](C)[C@@H](CN(C)C(=O)C2CCOCC2)Oc2ncc(C3=CCCCC3)cc2C1=O	DENV2 CPE rescue 45
C[C@@H]1CN([C@H](C)CO)C(=O)c2cc(C3=CCCCC3)cnc2O[C@@H]1CN(C)C(=O)C1CCOCC1	none
C[C@@H]1CN([C@H](C)CO)C(=O)c2cc(C3=CCCC3)cnc2O[C@@H]1CN(C)C(=O)Nc1ccc(C(F)(F)F)cc1	DENV2 CPE rescue 33
